Source: patent US20100016547A1, “Glycosilated Peptide and Medicine Comprising It as an Effective Ingredient” (priority 2005, published 2010)

Protein sequences, listed by entry. Tags and fused reporters are not part of them. Residues count along the entry.
UniProt P43220, 24-463, species assumed: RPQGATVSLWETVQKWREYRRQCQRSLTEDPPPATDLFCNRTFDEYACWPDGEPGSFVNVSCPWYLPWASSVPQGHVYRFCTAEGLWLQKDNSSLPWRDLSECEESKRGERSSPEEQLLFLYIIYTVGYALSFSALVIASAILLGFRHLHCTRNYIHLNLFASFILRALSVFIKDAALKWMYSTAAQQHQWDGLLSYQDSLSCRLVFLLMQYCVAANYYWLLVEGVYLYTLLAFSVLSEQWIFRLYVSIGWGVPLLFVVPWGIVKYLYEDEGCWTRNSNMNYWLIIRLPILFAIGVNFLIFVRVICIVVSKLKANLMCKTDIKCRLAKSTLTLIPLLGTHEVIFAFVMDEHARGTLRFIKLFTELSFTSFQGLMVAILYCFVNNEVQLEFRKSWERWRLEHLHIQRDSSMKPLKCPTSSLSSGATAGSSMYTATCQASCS

What was measured:
GLP-1 receptor [1] = molecular target: T1, GLP-1 receptor (Homo sapiens, UniProt P43220)
GLP-1 receptor [2] = molecular target: T1, GLP-1 receptor; experiment: Assay for production of cAMP

IC50 (GLP-1 receptor [1]): 1 nM
EC50 (GLP-1 receptor [2]): 0.11 nM
SMILES: CC[C@H](C)[C@H](NC(=O)[C@H](Cc1ccccc1)NC(=O)[C@H](CCC(=O)O)NC(=O)[C@H](CCCCN)NC(=O)[C@H](C)NC(=O)[C@H](C)NC(=O)[C@H](CCC(N)=O)NC(=O)CNC(=O)[C@H](CCC(=O)O)NC(=O)[C@H](CC(C)C)NC(=O)[C@H](Cc1ccc(O)cc1)NC(=O)[C@H](CO)NC(=O)[C@H](CO)NC(=O)[C@@H](NC(=O)[C@H](CC(=O)O)NC(=O)[C@H](CO)NC(=O)[C@@H](NC(=O)[C@H](Cc1ccccc1)NC(=O)[C@@H](NC(=O)CNC(=O)[C@H](CCC(=O)O)NC(=O)[C@H](C)NC(=O)[C@@H](N)Cc1c[nH]cn1)[C@@H](C)O)[C@@H](C)O)C(C)C)C(=O)N[C@@H](C)C(=O)N[C@@H](Cc1c[nH]c2ccccc12)C(=O)N[C@@H](CC(C)C)C(=O)N[C@H](C(=O)N[C@@H](CCCCN)C(=O)NCC(=O)N[C@@H](CCCNC(=N)N)C(=O)N[C@@H](CO)C(=O)NCC(=O)N[C@@H](CO)C(=O)NCC(=O)N[C@@H](CO)C(=O)NCC(=O)N[C@@H](CC(=O)N[C@@H]1O[C@H](CO)[C@@H](O[C@@H]2O[C@H](CO[C@]3(C(=O)O)C[C@H](O)[C@@H](NC(C)=O)[C@H]([C@H](O)[C@H](O)CO)O3)[C@H](O)[C@H](O)[C@H]2O)[C@H](O)[C@H]1NC(C)=O)C(N)=O)C(C)C [GLSGSGS43NS6]
